Biological target: T1, NPR-B (Homo sapiens, UniProt P20594)
T1 construct: a functional assay using endogenously NPR-B expressing GTM-3 cells; endogenous in cells; host or cells: GTM-3 (transformed human trabecular meshwork cells)
T1 sequence (P20594 23-1047): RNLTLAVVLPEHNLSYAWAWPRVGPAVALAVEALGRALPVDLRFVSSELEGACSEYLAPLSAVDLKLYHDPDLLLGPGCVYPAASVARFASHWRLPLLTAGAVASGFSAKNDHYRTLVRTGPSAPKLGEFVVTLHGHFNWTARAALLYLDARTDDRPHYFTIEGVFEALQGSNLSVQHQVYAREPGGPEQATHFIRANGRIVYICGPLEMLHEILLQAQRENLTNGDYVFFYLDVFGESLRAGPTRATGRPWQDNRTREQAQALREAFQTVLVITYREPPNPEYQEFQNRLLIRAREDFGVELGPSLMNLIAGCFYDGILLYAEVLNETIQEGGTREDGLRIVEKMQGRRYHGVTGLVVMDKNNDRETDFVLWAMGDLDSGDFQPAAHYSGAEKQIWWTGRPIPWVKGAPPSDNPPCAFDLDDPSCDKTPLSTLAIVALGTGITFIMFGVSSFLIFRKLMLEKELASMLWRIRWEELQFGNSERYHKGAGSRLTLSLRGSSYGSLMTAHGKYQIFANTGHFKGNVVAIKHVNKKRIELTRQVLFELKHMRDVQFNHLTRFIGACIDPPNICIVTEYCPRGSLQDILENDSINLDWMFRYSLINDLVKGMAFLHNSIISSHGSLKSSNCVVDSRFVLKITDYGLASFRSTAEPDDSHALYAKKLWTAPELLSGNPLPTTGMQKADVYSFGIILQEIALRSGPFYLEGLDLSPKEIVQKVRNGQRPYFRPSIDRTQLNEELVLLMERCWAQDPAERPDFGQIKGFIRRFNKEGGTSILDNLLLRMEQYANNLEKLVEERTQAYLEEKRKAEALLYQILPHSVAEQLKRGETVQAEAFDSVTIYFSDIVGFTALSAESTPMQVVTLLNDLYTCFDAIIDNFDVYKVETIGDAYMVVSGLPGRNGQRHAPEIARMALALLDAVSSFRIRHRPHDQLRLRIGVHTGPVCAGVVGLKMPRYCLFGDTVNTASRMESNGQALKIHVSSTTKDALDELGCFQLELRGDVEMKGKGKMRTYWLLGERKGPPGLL
Experiment: NPR-B induced production of cyclic GMP in GTM-3 cells
Assay type: cell-based
Conditions: group needs both EC50 and Emax criteria, checked A then B then C, read-out: Activity (group): NPR-B activation, EC50 and Emax (CNP = 100%)
Experimental: The efficacy and potency of compounds to activate NPR-B were evaluated in a functional assay using endogenously NPR-B expressing GTM-3 cells (Pang et al. 1994, Curr Eye Res 13:51-63). In this assay the dose dependent production of cyclic GMP (cGMP) is determined and Emax (maximum activation) and EC50 values are calculated.
The cell culture medium is aspirated and each well is washed with 200 μl DMEM/Ham's F12=Medium (Gibco). Then, 200 μl Medium supplemented with 1 mM IBMX (3-Isobutyl-1-methyl-xanthin, Sigma) is added to each well and incubated for 15 min. at room temperature.
Final compound concentrations are in the range from 45 μM to 20 nM.

Row | Compound | EC50
1 | CCCCCC(=O)N[C@H]1CSSC[C@@H](C(N)=O)NC(=O)[C@H](CO)NC(=O)CC2(CCCCC2)NC(=O)[C@H](CCCNC(=N)N)NC(=O)[C@H](CC(=O)O)NC(=O)[C@H](CC(C)C)NC(=O)[C@H](CCCCN)NC(=O)[C@H](CC(C)C)NC(=O)CNC(=O)[C@H](Cc2ccccc2)NC(=O)[C@@H](C)NC1=O [compound 118] | < 5 µM
2 | CCCCCC(=O)N[C@H]1CSSC[C@@H](C(N)=O)NC(=O)[C@H](CO)NC(=O)[C@H](C2CCCCC2)NC(=O)[C@H](CCCNC(=N)N)NC(=O)[C@H](CC(=O)O)NC(=O)[C@H](CC(C)C)NC(=O)[C@H](CCCCN)NC(=O)[C@H](CC(C)C)NC(=O)CNC(=O)[C@H](Cc2ccccc2)NC(=O)[C@@H](C)NC1=O [compound 119] | < 5 µM
3 | CCCCCC(=O)N[C@H]1CSSC[C@@H](C(N)=O)NC(=O)[C@H](CO)NC(=O)[C@H]([C@@H](C)CC)NC(=O)[C@H](CCc2ccnc(N)n2)NC(=O)[C@H](CC(=O)O)NC(=O)[C@H](CC(C)C)NC(=O)[C@H](CCCCN)NC(=O)[C@H](CC(C)C)NC(=O)CNC(=O)[C@H](Cc2ccccc2)NC(=O)[C@@H](C)NC1=O [compound 121] | < 5 µM

The next lines start with the values.

Row | EC50 | Compound
4 | < 5 µM | CCCCCC(=O)N[C@H]1CSSC[C@@H](C(N)=O)NC(=O)[C@H](CO)NC(=O)[C@H]([C@@H](C)CC)NC(=O)[C@H](CCCNc2ccccn2)NC(=O)[C@H](CC(=O)O)NC(=O)[C@H](CC(C)C)NC(=O)[C@H](CCCCN)NC(=O)[C@H](CC(C)C)NC(=O)CNC(=O)[C@H](Cc2ccccc2)NC(=O)[C@@H](C)NC1=O [compound 111]
5 | < 5 µM | CCCCCC(=O)N[C@H]1CSSC[C@@H](C(N)=O)NC(=O)[C@H](CO)NC(=O)[C@H]([C@@H](C)CC)NC(=O)[C@H](C2CCNCC2)NC(=O)[C@H](CC(=O)O)NC(=O)[C@H](CC(C)C)NC(=O)[C@@H]2CCCN2C(=O)[C@H](CC(C)C)NC(=O)CNC(=O)[C@H](Cc2ccccc2)NC(=O)[C@@H](C)NC1=O [compound 113]
6 | < 5 µM | CCCCCC(=O)N[C@H]1CSSC[C@@H](C(N)=O)NC(=O)[C@H](CO)NC(=O)C2(CCCCC2)NC(=O)[C@H](CCCNC(=N)N)NC(=O)[C@H](CC(=O)O)NC(=O)[C@H](CC(C)C)NC(=O)[C@H](CCCCN)NC(=O)[C@H](CC(C)C)NC(=O)CNC(=O)[C@H](Cc2ccccc2)NC(=O)[C@@H](C)NC1=O [compound 115]
7 | < 1 µM | CCCCCC(=O)N[C@H]1CSSCCNC(=O)[C@H](CO)NC(=O)[C@H]([C@@H](C)CC)NC(=O)[C@H](CCCNC(=N)N)NC(=O)[C@H](CC(=O)O)NC(=O)[C@H](CC(C)C)NC(=O)[C@H](CCCCN)NC(=O)[C@H](CC(C)C)NC(=O)CNC(=O)[C@H](Cc2ccccc2)NC(=O)[C@@H](C)NC1=O [compound 120]
